Test system: NCI-H929 target cells
Assay: ACTR T-cell cytokine release (IFNγ, IL2; Meso Scale Discovery) in co-culture with target cells and antibody
Assay type: cell-based, human
Conditions: T-cells expressing ACTR SEQ ID NO:1, E:T 4:1, 24-hour, increasing antibody concentrations, BCMA+ HER2− NCI-H929
Method: T-cells expressing ACTR variant SEQ ID NO: 1 (effector; E) and target cells (target; T) were incubated at a 4:1, effector-to-target ratio (120,000 T cells; 30,000 target cells) with increasing concentrations of various chimeric antibodies in a 200-μL reaction volume in RPMI 1640 media supplemented with 10% fetal bovine serum. In FIG. 4, the chimeric antibodies included fucosylated and afucosylated (SEA) versions of the SG16.17 and SG16.45 anti-BCMA antibodies at a concentration range of 100-0.0005 μg/mL. In FIG. 9, humanized afucosylated (SEA) SG16.17 antibody was used at a concentration range of 3.8-0.002 μg/mL. […] Supernatants were subsequently analyzed for IFNγ and IL2 using the Meso Scale Discovery V-Plex Human IFN-γ Kit (K151QOD-4) and V-Plex Human IL-2 Kit (K151QQD-4). Briefly, the Proinflammatory Calibrator Blend, Detection Antibody Solution, and Read Buffer were prepared according to manufacturer protocols. […] Read Buffer (150 μL) was added to the plate and the plates were run on the MSD Quickplex SQ 120.
ACTR or mock T-cells (effector; E) and target cells (target; T) were incubated at a 4:1 E:T ratio in the presence of increasing concentrations of anti-BCMA (hSG16.17 SEA) or anti-HER2 (trastuzumab) targeting antibodies. […] Supernatants were subsequently analyzed for IFNγ using the Meso Scale Discovery V-Plex Human IFN-γ Kit (K151QOD-4). […]

trastuzumab [reference compound]
IFNγ production: minimal IFNγ

Reference: US20190381171A1, “CO-USE OF ANTI-BCMA ANTIBODY AND ANTIBODY-COUPLED T CELL RECEPTOR (ACTR) IN CANCER THERAPY AND B CELL DISORDERS” (UNUM THERAPEUTICS INC., priority 2017, published 2019)
